Experimental data reported in US20160109459A1, “Compositions And Methods For Heparan Sulfate As A Biomarker For Transplant Rejection” (Duke University, priority 2012, published 2016).

Protein sequences, listed by entry. Tags and fused reporters are not part of them. Residues count along the entry.
UniProt O00206, 24-839: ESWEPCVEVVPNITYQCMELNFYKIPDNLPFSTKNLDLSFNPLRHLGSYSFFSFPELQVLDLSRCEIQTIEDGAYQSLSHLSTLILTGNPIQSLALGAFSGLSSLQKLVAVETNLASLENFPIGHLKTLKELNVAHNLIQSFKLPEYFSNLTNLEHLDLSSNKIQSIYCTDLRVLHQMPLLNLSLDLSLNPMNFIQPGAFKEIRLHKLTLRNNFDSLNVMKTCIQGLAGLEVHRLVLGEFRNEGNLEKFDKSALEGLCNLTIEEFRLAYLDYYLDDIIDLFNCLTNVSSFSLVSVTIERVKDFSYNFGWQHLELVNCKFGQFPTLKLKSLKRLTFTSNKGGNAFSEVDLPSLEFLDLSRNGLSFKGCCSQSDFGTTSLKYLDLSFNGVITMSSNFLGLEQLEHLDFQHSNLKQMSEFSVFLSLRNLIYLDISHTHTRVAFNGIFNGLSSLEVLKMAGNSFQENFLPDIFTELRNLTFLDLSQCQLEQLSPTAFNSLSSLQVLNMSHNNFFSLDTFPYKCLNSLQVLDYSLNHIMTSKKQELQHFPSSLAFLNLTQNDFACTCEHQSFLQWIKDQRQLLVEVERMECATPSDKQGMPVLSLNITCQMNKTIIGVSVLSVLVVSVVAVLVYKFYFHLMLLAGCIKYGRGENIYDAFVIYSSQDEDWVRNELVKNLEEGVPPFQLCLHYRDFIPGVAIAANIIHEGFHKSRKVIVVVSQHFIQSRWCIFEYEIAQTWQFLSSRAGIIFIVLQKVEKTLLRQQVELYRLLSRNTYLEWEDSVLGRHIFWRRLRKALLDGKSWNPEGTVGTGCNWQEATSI

Biological target: T1, human TLR4 (Homo sapiens, UniProt O00206)
T1 construct: expressed in transfected cells; host or cells: HEK 293 (gift from Dr. Michael Fessler, NIEHS)
Assay: IL-8 production by ELISA in HEK TLR4-MD2-CD14 cells
Type: cell-based
Conditions: PMB added to cultures
Experimental: HEK cell lines stably expressing CD14 and MD2 alone (HEK MD2-CD14), or co-expressed with human TLR2 (HEK TLR2-MD2-CD14) or human TLR4 (HEK TLR4-MD2-CD14) were transfected with a plasmid encoding firefly luciferase (F) under control of the NF-κB promoter along with a plasmid expressing Renilla luciferase (R) under control of the thymidine kinase promoter as a transfection control. Cell lines were cultured for 6 hours with media alone, LPS (100 ng/mL), HS (100 μg/mL), or Pam3CSK4 (2 μg/mL). FIG. 5A is a graph showing the ratio of F/R was measured by dual luciferase reporter assay to determine NF-κB activation of lysed cells, *p<0.05 compared with media alone. FIG. 5B is a graph showing results supernatants analyzed for IL-8 production by ELISA. FIG. 5C is a graph showing IL-8 production in response to LPS and HS+/−PMB in HEK TLR4-MD2-CD14 cells, *p>0.05. FIG. 5D is a graph showing +/− heparanase (Hpase) in HEK TLR4-MD2-CD14 cells, *p<0.05. Experiments were performed in triplicate or quadruplicate. Results are representative of two to three independent experiments. […]
A heterodimer of different TLRs is required for some PAMPs. […] The ratio of luminescence produced by firefly luciferase to Renilla luciferase (F/R) was then measured in response to media alone, LPS, HS, and Pam3CSK4. The production of IL-8, which is downstream of NF-κB activation, by ELISA was also measured. […]

polymyxin B [PMB, reference compound]
effect on IL-8 expression resulting from HS treatment: but not HS treatment
effect on IL-8 expression resulting from LPS treatment: inhibited
